Laboratory results: patent publication US20220072036A1, “METHOD FOR INHIBITING CORONAVIRUS AND METHOD FOR TREATING DISEASE ASSOCIATED WITH CORONAVIRUS INFECTION” (AMAZING FORTUNE CO., LTD., priority 2020, published 2022)

Target: SARS-CoV-2 papain-like protease (PLPro) (Severe acute respiratory syndrome coronavirus 2, UniProt P0DTD1)
Type: biochemical

## CC1=C(/C=C/C(C)=C/C=C/C(C)=C\C(=O)O)C(C)(C)CCC1 [Comparative Group 1, 13-cis-retinoic acid]
  Inhibition percentage: 20.63 ± 1.27%
